This assay deals with T1, D3 receptors (Chlorocebus aethiops, UniProt P52703).
T1 construct: expressed in transfected cells; host or cells: COS cells
The assay can be described thus: D3 receptor binding (displacement of 0.5 nM 3H-YM 09151-2). Also noted: species or system African Green monkey. The settings on record: pellets of COS cells with recombinant D3, nonspecific binding with 1 mM spiperone. The procedure: Assay for D2 and D3 Receptor Binding Activity
Pellets of COS cells containing recombinantly produced D2 or D3 receptors from African Green monkey were used for the assays. The sample is homogenized in 100 volumes (w/vol) of 0.05 M Tris HCl buffer at 4° C. and pH 7.4. The sample is then centrifuged at 30,000 ×g and resuspended and rehomogenized. The sample is then centrifuged as described and the final tissue sample is frozen until use. The tissue is resuspended 1:20 (wt/vol) in 0.05 M Tris HCl buffer containing 100 mM NaCl.
Incubations are carried out at 48° C. and contain 0.4 ml of tissue sample, 0.5 nM ^3 H-YM 09151-2 and the compound of interest in a total incubation of 1.0 ml. Nonspecific binding is defined as that binding found in the presence of […] spiperone; without further additions, nonspecific binding is less than 20% of total binding. The binding characteristics of representative compounds of the invention for D2 and D3 receptor subtypes are shown in Table 2 for rat striatal homogenates.

Amino acid sequences for entries named in this document (tags omitted).
UniProt P52703, whole entry: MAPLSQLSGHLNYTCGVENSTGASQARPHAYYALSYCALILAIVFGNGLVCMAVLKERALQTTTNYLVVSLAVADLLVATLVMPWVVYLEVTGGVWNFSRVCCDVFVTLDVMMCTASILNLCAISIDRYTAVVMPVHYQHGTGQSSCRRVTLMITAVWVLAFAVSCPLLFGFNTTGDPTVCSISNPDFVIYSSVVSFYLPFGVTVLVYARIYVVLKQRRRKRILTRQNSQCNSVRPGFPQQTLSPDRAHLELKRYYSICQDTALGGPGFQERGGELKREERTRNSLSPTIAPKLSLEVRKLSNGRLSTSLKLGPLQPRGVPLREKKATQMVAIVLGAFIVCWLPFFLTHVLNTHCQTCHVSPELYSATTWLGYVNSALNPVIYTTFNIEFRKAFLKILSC

Experimental findings from patent publication US5922879A, “N-aminoalkyl-2-anthraquinonecarboxamides: new dopamine receptor subtype specific ligands” (Neurogen Corporation, priority 1997, dated 1999) are described below.

For “N-(1-{4-[4-(2-Methylphenyl)piperazin-1-yl]}butyl)-2-anthraquinonecarboxamide hydrochloride [Compound 7]”, the Ki (in general, the equilibrium dissociation constant of an inhibitor or competing ligand from its target) worked out at 1 nM.
